Each structure is given as a SMILES string. Only a part is listed here, and it is no random draw. Some tests of the compounds listed are not included; inactive here does not mean inactive elsewhere. The source made the active and inactive calls.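 The calls were made as follows: active = mean activation above about 17%, with every replicate also reaching it (limit read from the data, passing the limit was not always enough); inconclusive = only one of the two conditions met; inactive = the rest.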

Sequences of proteins named here, by UniProt entry; tags and fusion partners are left off.
UniProt P13346, whole entry: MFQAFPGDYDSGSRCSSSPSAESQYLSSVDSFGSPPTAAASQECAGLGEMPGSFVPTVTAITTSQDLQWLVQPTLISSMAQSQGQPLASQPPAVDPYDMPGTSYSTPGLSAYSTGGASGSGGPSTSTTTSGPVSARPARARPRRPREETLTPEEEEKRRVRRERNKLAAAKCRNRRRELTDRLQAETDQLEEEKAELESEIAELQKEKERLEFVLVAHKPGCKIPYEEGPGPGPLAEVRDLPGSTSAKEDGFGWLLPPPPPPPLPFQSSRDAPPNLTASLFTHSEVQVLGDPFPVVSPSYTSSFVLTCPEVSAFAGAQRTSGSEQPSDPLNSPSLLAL

The test concerns the target Protein FosB (Mus musculus) (UniProt P13346). The test can be described thus: enhancers of mouse delta FosB DNA binding – biochemical, fluorescence polarization, TAMRA-CDK5 oligo, single point, primary screen (AID 493131).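 Also: fluorescence polarization rise as delta FosB binds a TAMRA Cdk5 AP-1 oligo.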 The following applies: purified delta FosB, at 25 µM, hits give high values, percent of positive-control signal above neutral wells.
As to `O=C(OC1CN2CCC1CC2)C(CO)(c1ccccc1)c1ccccc1` (stereo not given), the activation was inactive: -1.74%.
In the case of `COc1ccc(Br)c(C(=O)NCC2(N3CCCCC3)CCCCC2)c1`, the activation was inactive: 5.15%.
For `CN(C)c1cccc(C(=O)NCC2(N(C)C)CCCCC2)c1`, the activation was inactive: 4.11%.
The result for `O=C(OCCN1CCCC1)C(O)(c1ccccc1)c1ccccc1` reads inactive: 5.83%; that for `CC(C)Oc1ccc(C(=O)NCC2(N(C)C)CCCCC2)cc1`, inactive: 8.74%.
On to `CN(C)C1(CNC(=O)c2ccc(Br)cc2)CCCCC1`, for which the activation is inactive: -1.31%.
The result for `COc1cc(C(=O)NCC2(N(C)C)CCCCC2)c([N+](=O)[O-])cc1OC` reads inactive: -2.53%; that for `COc1ccc(Cl)cc1C(=O)NCC1(N(C)C)CCCCC1`, inactive: -3.92%.
Take `COc1cccc(C(=O)NCC2(N3CCCCC3)CCCCC2)c1`: the activation was inactive: -2.59%.
To `O=C(NCC1(N2CCCCC2)CCCCC1)c1cccc(Cl)c1` belongs inactive: -2.09%; to `CN(C)C1CCCC1OC(=O)C(O)(c1ccccc1)c1ccccc1` (stereo not given), inactive: -7.51%; to `CN(C)c1ccc(C(=O)NCC2(N(C)C)CCCCC2)cc1`, inactive: -0.45%.
As to `Cc1ccccc1C(=O)NCC1(N2CCCCC2)CCCCC1`, the activation was inactive: 3.4%.
For `O=C(NCC1(N2CCCCC2)CCCCC1)c1cc(F)c(F)cc1Cl`, the activation is inactive: -4.11%.
As to `C=CCN1CCN(CCOC(=O)C(O)(c2ccccc2)c2ccccc2)CC1`, the activation is inactive: -3.12%.
For the compound `O=C(NCC1(N2CCCCC2)CCCCC1)c1cccc(Br)c1`, the activation is inactive: -9.94%.
To `Cc1cc(C(=O)NCC2(N3CCCCC3)CCCCC2)ccc1[N+](=O)[O-]` belongs inactive: -2.88%; to `CCN1CCCC(OC(=O)C2(O)c3ccccc3C=Cc3ccccc32)C1` (stereo not given), inactive: -6.09%.
Take `COc1ccc(C(=O)NCC2(N(C)C)CCCCC2)cc1`: the activation was inactive: -5.27%.
To `O=C(NCC1(N2CCCCC2)CCCCC1)c1cc([N+](=O)[O-])ccc1Cl` belongs inactive: -7.89%; to `CN1[C@@H]2CC[C@H]1CC(OC(=O)C(O)(c1ccccc1)c1ccccc1)C2` (stereo not given in full), inactive: -7.6%.
The result for `CC(C)N1C(=O)CC2(CCN(CCOC(=O)C(O)(c3ccccc3)c3ccccc3)CC2)C1=O` reads inactive: -3.22%; that for `COc1cc(SC)ccc1C(=O)NCC1(N(C)C)CCCCC1`, inactive: 1.05%; that for `CCN(CC)CC(C)C(C)OC(=O)C(O)(c1ccccc1)c1ccccc1` (stereo not given), inactive: -3.61%.
To `Cc1ccc(C(=O)NCC2(N3CCCCC3)CCCCC2)cc1` belongs inactive: -7.87%.

The values above are taken from PubChem BioAssay AID493131 (Broad Institute, 2011).
